Experiments:
[1] = Conjugate stability in mouse serum; settings: mouse serum at +37° C., overnight and four days, MALDI-TOF MS
[2] = PBS at 37° C. for 24 h (pH 7.4), MALDI-TOF MS
[3] = HSA 40 mg/ml, PBS pH 7.4, 37° C.

Substance | linker stability in serum [1] | maleimide stabilization by hydrolysis [2] | DAR at start of incubation ([3]; 0 days) | DAR at end of incubation ([3]; 10 days)
glutathione-maleimidocaproyl-Val-Cit-PAB-MMAU | relatively unstable in serum | – | – | –
trastuzumab-maleimidoacetyl-β-Ala-Val-Ser(Glc)-PAB-MMAU [TRAuM] | – | effectively stabilized by hydrolysis during the 24 h incubation | 7.8 | 7.2

Reference: patent US20250161478A1, “LINKER PAYLOADS AND CONJUGATES THEREOF” (priority 2021, published 2025)
